Earlier results in US20210137911A1, “NOVEL CHRONOTHERAPY BASED ON CIRCADIAN RHYTHMS” (THE TRUSTEES OF THE UNIVERSITY OF PENNSYLVANIA, priority 2014, published 2021).

Conditions: in vivo; cited from earlier work

Substance	½ Life [h]
Thyrotropin Alfa	5
Interferon Alfa-2b, Recombinant	2
